## Binding of CDR-mutated scFvs to a peptide of the spike HR2 region

Source: Engelhart et al. 2022 (doi:10.1038/s41597-022-01779-4), MIT Lincoln Laboratory and A-Alpha Bio; data file from the FLAb repository.

Target: peptide PDVDLGDISGINAS, taken from heptad repeat 2 (HR2) of SARS-CoV-2 spike.

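The parent was found by panning a naive human phage display library on the peptide. Variants in AAYL50 differ from the parent at up to three CDR positions; double and triple changes were sampled at random. The assay is AlphaSeq: two haploid yeast populations carry antibody and antigen on their surface. Pairs that bind mate more often; barcode pairs of the diploids are counted by sequencing. Each replicate has its own calibration line, from reference interactions of the BCL2 family. The assay was run in three technical replicates.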

Parent: Ab-14, a human scFv built as VH, a 15-residue (Gly4Ser)3 linker, VL. Only the CDRs of the light chain vary.
VH: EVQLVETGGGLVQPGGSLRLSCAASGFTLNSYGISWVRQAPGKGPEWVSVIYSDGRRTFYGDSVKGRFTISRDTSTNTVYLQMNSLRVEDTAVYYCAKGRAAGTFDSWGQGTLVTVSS
VL: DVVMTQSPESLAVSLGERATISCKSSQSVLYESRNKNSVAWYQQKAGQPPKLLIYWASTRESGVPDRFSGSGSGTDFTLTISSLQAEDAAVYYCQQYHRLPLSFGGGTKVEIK

The parent's light chain CDRs are KSSQSVLYESRNKNSVA, WASTRES, QQYHRLPLS; each variant's own CDRs replace them letter for letter.
This list gathers variants with a substitution at S33 (VL, numbered from residue 1).
Values are apparent Kd, the geometric mean of the replicates that gave a signal; lower means stronger binding.
"no signal" means that the variant was in the library but no mating with the target was seen in any replicate; the authors take this as a sign of poor binding, and no number exists.
As a blank, each scFv also met three strains without target: over library AAYL50, 18% of these pairings were detected, typically at 15 µM and seldom below 970 nM. Also given: how often the same scFv was detected with the empty control strains.

Variant KHSQSVLYEMRNKNSVA | WASTWES | QQYHRLPLS gave no signal (0 of 3 replicates; controls 0 of 9). With KSSQSVLYEDVNKNSVA | WPSTRES | QQYHRLPLS the result was no signal (0 of 3 replicates; controls 0 of 9). With KSSQSVLYEDRNKNSVA | WASTRLS | QQYHRSPLS the result was 1.2 µM (3 of 3 replicates; controls 0 of 9). For KSSQSVLYEFCNKNSVA | WASTRCS | QQYHRLPLS, the assay gave 150 nM (3 of 3 replicates; controls 0 of 9). Variant KSSQTVLYEVRNKNSVA | WAITRES | QQYHRLPLS gave no signal (0 of 3 replicates; controls 0 of 9).

Variant KSSQSVEYEMRNKNSVA | WASTRES | QQGHRLPLS gave 370 µM (1 of 3 replicates; controls 5 of 9). With KSSQSVLYEQRNKNSVW | WASTRES | QLYHRLPLS the result was no signal (0 of 3 replicates; controls 0 of 9). Variant KSSQSVLYEGRNKNSVA | WASSGES | QQYHRLPLS gave 46 µM (2 of 3 replicates; controls 6 of 9). With KSSQSVLYELRNKNSVA | WASTRES | QQYHRLPGS the result was 22 µM (2 of 3 replicates; controls 1 of 9). Variant KSSESVLYETRNKNSVA | NASTRES | QQYHRLPLS gave 1.6 nM (3 of 3 replicates; controls 2 of 9).

Variant KSSQSVLYEPRNKNSRA | WASTRES | EQYHRLPLS showed 4.6 µM (1 of 3 replicates; controls 0 of 9). Variant KSSQSVEYELRNKNSVA | WASTRES | HQYHRLPLS showed 50 nM (3 of 3 replicates; controls 0 of 9). Variant KTSQSVLYEKRNKNSVA | WASTRES | AQYHRLPLS showed 160 nM (3 of 3 replicates; controls 8 of 9). With KSSLSVLYEWRNKNSVA | WASTRES | QKYHRLPLS the result was 480 nM (1 of 3 replicates; controls 0 of 9). Variant KSSQSVLYEMRNKNSVN | WASTRES | QQYHRCPLS gave no signal (0 of 3 replicates; controls 1 of 9).

For KSSQSVLYEDQNKNYVA | WASTRES | QQYHRLPLS, the assay gave 82 nM (3 of 3 replicates; controls 1 of 9). Variant KSSQSVLYEARNKNSVA | VASTRES | QQYHRLPMS showed 5.9 µM (1 of 3 replicates; controls 0 of 9). Variant KSSQSVLYEFRNKNSVA | WASTRNS | QQYHRKPLS showed no signal (0 of 3 replicates; controls 0 of 9). Variant KSSQSVLYETRNKNSVA | TASTRKS | QQYHRLPLS showed 390 nM (3 of 3 replicates; controls 3 of 9). Variant KSSQSVLTEPRNKNGVA | WASTRES | QQYHRLPLS gave 29 nM (3 of 3 replicates; controls 3 of 9).

With KSSRSVLYENRNKNSVA | WASTRES | QQYHQLPLS the result was 54 nM (3 of 3 replicates; controls 0 of 9). Variant KYSQSVLYELRNKNSVA | WASTRES | QQYMRLPLS showed 67 nM (3 of 3 replicates; controls 2 of 9). For KSSISVLYEKRNKNTVA | WASTRES | QQYHRLPLS, the assay gave no signal (0 of 3 replicates; controls 0 of 9). Variant KSSWSVLYEKRNKNSVA | WGSTRES | QQYHRLPLS gave 29 nM (3 of 3 replicates; controls 1 of 9). Variant RSSQSVLYETRNKNSPA | WASTRES | QQYHRLPLS showed no signal (0 of 3 replicates; controls 0 of 9).

Variant KSSQSVLYEIRNWNSVA | RASTRES | QQYHRLPLS gave 9.3 nM (3 of 3 replicates; controls 1 of 9). Variant KSSQSVLYEARNKNSVA | WYSTRES | QQYHRLPLS showed 100 µM (2 of 3 replicates; controls 4 of 9). Variant KSSQSVLYENRNKTMVA | WASTRES | QQYHRLPLS showed 14 µM (1 of 3 replicates; controls 5 of 9). With KSSQSVLYEGRNKNSVA | WASTRES | QMLHRLPLS the result was 320 µM (1 of 3 replicates; controls 3 of 9). Variant KSSPSVLYEYRNKNSVA | WASTRES | QQYHRLPLS gave 8.3 nM (3 of 3 replicates; controls 2 of 9).

Variant KSSQSVLYEQRNKNCVA | WASTRKS | QQYHRLPLS gave no signal (0 of 3 replicates; controls 3 of 9). With KSSQSVLYETRNKNSVA | WASTQES | QQYKRLPLS the result was 11 µM (1 of 3 replicates; controls 1 of 9). With KSSQSVIYEERNKNSVA | WASTRES | QQWHRLPLS the result was no signal (0 of 3 replicates; controls 0 of 9). With KSSQSVLYEQRGKNSVA | WASTRES | QQYHRLVLS the result was no signal (0 of 3 replicates; controls 2 of 9). Variant KSSQSVLYERRNKNSVA | WASTRES | QQYHRLPRS gave no signal (0 of 3 replicates; controls 0 of 9).

For KSETSVLYEDRNKNSVA | WASTRES | QQYHRLPLS, the assay gave 1.5 nM (3 of 3 replicates; controls 0 of 9). For KLSQSVKYEFRNKNSVA | WASTRES | QQYHRLPLS, the assay gave 3.2 nM (3 of 3 replicates; controls 2 of 9). Variant KMSQSVLYEHRNKNRVA | WASTRES | QQYHRLPLS showed 8.7 µM (2 of 3 replicates; controls 2 of 9). With KSSQSVLYENRNKNSVA | WASTWES | QQYHRLPLS the result was no signal (0 of 3 replicates; controls 1 of 9). Variant KSSQSVLYEVRNKNSVA | WASDRES | QQYHRLPLN showed 8.9 µM (2 of 3 replicates; controls 2 of 9).

Variant KSSQSFLYEYRNKNSVA | WASTRES | QQYHRLNLS gave 19 nM (3 of 3 replicates; controls 0 of 9). With KSSQSVLYEGRNKNSVA | WAMTRED | QQYHRLPLS the result was 4.2 nM (3 of 3 replicates; controls 0 of 9). With KSSQSVLYEKRNKNSVA | WASTRES | QQYHRLPLS the result was 89 nM (3 of 3 replicates; controls 1 of 9). Variant KSSQSVLYEPRNKGSVA | WASTRES | QQYHRLQLS showed 11 nM (3 of 3 replicates; controls 1 of 9). For KSSQSVLYEGRMKNSVA | KASTRES | QQYHRLPLS, the assay gave 7.7 nM (3 of 3 replicates; controls 6 of 9).

For KSSQSVLYMCRNKNSVA | CASTRES | QQYHRLPLS, the assay gave no signal (0 of 3 replicates; controls 0 of 9). Variant KSSQSVLYETRNKNSVA | WASTRES | QQYHRLPLS showed 9.8 nM (3 of 3 replicates; controls 0 of 9).

Again, the first 5 entries without any signal:

CDR-L1	CDR-L2	CDR-L3	apparent Kd	replicates with signal	empty controls
KHSQSVLYEMRNKNSVA	WASTWES	QQYHRLPLS	no signal	0/3	0/9
KSSQSVLYEDVNKNSVA	WPSTRES	QQYHRLPLS	no signal	0/3	0/9
KSSQTVLYEVRNKNSVA	WAITRES	QQYHRLPLS	no signal	0/3	0/9
KSSQSVLYEQRNKNSVW	WASTRES	QLYHRLPLS	no signal	0/3	0/9
KSSQSVLYEMRNKNSVN	WASTRES	QQYHRCPLS	no signal	0/3	1/9

In this assay the parent's reference entry averaged 4.4 nM; its copy inside this library read 48 nM.